From patent EP4825847A1, “NMDA RECEPTOR ANTAGONIST AND USE THEREOF” (dated 2026)
Where a name gives a salt, the structure may show the parent alone.

Amino acid sequences for entries named in this document (tags omitted). Residues count along the entry.
UniProt Q12879, 23-1464 limits assumed: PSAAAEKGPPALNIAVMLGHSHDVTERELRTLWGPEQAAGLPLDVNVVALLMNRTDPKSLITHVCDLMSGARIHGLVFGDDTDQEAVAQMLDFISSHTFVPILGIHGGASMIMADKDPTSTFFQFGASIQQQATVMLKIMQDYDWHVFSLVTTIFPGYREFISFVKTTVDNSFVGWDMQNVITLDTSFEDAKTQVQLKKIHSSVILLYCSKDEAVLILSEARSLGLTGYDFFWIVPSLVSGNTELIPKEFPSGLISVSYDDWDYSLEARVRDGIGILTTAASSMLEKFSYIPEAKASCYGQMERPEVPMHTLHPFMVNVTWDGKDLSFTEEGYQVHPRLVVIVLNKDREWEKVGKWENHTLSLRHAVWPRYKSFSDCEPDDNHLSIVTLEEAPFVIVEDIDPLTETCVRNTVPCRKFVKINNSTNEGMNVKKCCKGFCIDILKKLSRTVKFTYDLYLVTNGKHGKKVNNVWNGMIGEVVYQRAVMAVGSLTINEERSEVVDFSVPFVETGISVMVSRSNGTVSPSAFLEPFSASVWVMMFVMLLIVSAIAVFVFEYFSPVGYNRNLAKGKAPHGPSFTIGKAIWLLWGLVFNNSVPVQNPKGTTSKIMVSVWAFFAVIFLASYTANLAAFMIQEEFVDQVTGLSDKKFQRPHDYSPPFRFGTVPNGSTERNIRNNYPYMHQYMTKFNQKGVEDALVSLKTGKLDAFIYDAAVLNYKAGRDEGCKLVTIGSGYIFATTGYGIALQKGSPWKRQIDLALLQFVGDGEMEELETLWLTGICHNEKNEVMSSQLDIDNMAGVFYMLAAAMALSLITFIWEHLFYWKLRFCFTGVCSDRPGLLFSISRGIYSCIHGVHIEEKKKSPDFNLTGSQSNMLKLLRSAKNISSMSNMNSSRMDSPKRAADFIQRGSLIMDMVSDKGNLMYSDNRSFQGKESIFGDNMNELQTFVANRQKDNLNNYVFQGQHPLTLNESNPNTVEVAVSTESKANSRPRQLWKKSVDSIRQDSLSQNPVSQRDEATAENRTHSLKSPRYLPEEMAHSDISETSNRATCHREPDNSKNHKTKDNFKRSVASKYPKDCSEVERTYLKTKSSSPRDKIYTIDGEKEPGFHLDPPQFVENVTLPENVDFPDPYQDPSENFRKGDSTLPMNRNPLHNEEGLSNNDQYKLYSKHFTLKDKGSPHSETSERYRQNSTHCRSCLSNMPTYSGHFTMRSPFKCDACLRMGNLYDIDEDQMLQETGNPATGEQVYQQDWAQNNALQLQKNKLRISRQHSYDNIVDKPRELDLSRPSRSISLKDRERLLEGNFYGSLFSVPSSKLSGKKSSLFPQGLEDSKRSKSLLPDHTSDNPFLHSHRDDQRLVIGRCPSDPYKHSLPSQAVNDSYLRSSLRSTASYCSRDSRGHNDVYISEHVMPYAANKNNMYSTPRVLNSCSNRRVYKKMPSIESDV

What was measured:
[1] = test system: C57BL/6J male mice; test: Open field test of mice
Source text: Open field test is a standard behavioral method to evaluate the voluntary movement behavior and the exploratory behavior, which is widely used in the research of neurological and psychiatric diseases such as depression, anxiety, Parkinson's disease and screening of drugs acting on central nervous system.
Due to the limited tests to evaluate the hallucinogenic effect of NMDAR antagonists, the open field test is used in the present invention to evaluate whether the compound affects the spontaneous locomotor activity of mice and also used to indirectly evaluate whether the compound has hallucinogenic effect. Furthermore, the increase of spontaneous locomotor activity of mice is also considered as one of the positive symptoms of schizophrenia. Therefore, the open field test can also be used to evaluate whether the compound has the psychotomimetic-like side effects.
The animal information was the same as that in Test Example 2. The number of animals in each group (N) was 10, the administration mode was intraperitoneal injection or oral administration, the dosage of administration was 5 or 10 mg/kg, and the volume of administration was 10 mL/kg.
Test process: The open field test chamber was a soundproof chamber made of opaque plexiglass and having an inner diameter of 40*40*40 cm, and the analysis software was purchased from Noldus (Ethovision XT 11.5). The test was carried out in a quiet environment. The animals were weighed and acclimated in the test chamber for at least 30 min before the test. Before the test, the software EthoVision XT 11.5 was set, the wild-type mice were placed at the center of the bottom of the chamber, and the activity within 30 min or 20 min was recorded as the baseline. After 30 min, the mice were taken out and given corresponding doses of solvent (control group) or test compound according to their body weight. Immediately after administration, the mice were placed in the same observation chamber as that in the baseline stage, and their activities within 40 min after administration were recorded. The instrument was wiped with 75% alcohol after each test, to avoid the influence of the information left by animals in the last round (such as the smell of animals' feces and urine) on the next test result. The next round of animals were changed to continue the test. After the test, data were collected for statistical analysis. The difference was analyzed by unpaired t-test to have statistical significance, where P<0.05 means that there was a significant difference. ^# P<0.05, * P<0.05, **P<0.01, ***P<0.001, **** P<0.0001. After the test, the distance (cm) traveled by the mice in the control and test compound groups every 5 min was statistically analyzed. 33 to 36.

[2] = test system: C57BL/6J male mice; test: Forced swimming test; conditions: for 1-h inhibition rate: i.p., 10 mg/kg, immobility time 1 hr after administration
Experimental: Test animals: C57BL/6J male mice aged 10-12 weeks were purchased from Speifu (Suzhou) Biotechnology Co., Ltd. The animals arrived at the test center before the test and acclimated in the feeding room for more than 7 days. 5 animals per cage was bred at a temperature of 23-24°C, under a 12-hr light/12-hr dark cycle. Before the behavioral test, the animals were taken to the behavioral test chamber 1 hour in advance, to acclimate to the environment.
Forced swimming test is a standard behavioral test to evaluate the depressive behavior of rodents. […] It is generally accepted that this behavioral despair is similar to the depressive symptoms in humans. The objective of this test was to evaluate the antidepressant efficacy of the compound of the present invention in C57 mice.
In the FST test, the number of animals in each group (N) was 15, the administration mode was intraperitoneal injection (i.p.) or oral gavage (p.o.), the dosage of administration was 5, 10 or 20 mg/kg (depending on the experimental needs), and the volume of administration was 10 mL/kg. The vehicle was 0.9% physiological saline.
Test process: 1. The test was carried out in a quiet environment. The animals were weighed and acclimated in the test chamber for at least 30 min before the test.
2. The compound to be tested was dissolved in 0.9% physiological saline, and the corresponding volume of the compound was given by intraperitoneal injection (i.p.) or oral gavage (p.o.) according to the weight of mice and used as the test group. 0.9% physiological saline was used as the control group, and the dosage was the target dosage of administration. The administration process was double-blinded administration.
3. 1 hr after administration, the mice were placed in a transparent plexiglass water tank with a diameter of 15 cm and a height of 30 cm, in which water was injected to a height of about 15 cm, and the water temperature was 23-25°C. The total recording time was 6 min.
4. The immobility time of mice within later 4 min was analyzed, with which the degree of helplessness and despair of mice was reflected.
5. The immobility time of mice between the administration group and the control group was compared, and the antidepressant activity (1-h inhibition rate) of the compound to be tested was analyzed. The difference was analyzed by unpaired t-test to have statistical significance, P<0.05 means that there was a significant difference. * P<0.05, **P<0.01, ***P<0.001. [formula]

[3] = biological target: human NMDA receptor GluN1 and GluN2A subunits (Homo sapiens, UniProt Q05586+Q12879); test: Whole-cell patch-clamp recording of NMDA receptor-mediated current in HEK293 cells; conditions: compound at 10 µM, glutamic acid 100 µM
Experimental: The day before transfection, HEK293 cells were inoculated into a 24-well plate with a 10 mm glass slide, and the glass slide was coated with polylysine in advance to increase the cell attachment. DMEM medium containing 10% FBS was added, and the cells were cultured in an incubator at 37°C and 5% CO2. When the cells were grown to 60%-70% confluency after 18-24 hrs, TRE-GluN1-GluN2A containing human GluN1 and GluN2A, and the plasmid cDNAs of tTA and pCAG-EGFP were transfected into HEK293 cells by lipofectin transfection (TRE-GluN1-GluN2A: tTA: pCAG-EGFP was 0.2 µg : 0.2 µg : 0.02 µg). Before transfection, a new DMEM medium was changed, and 1 µg/mL Dox (doxycycline) was added to the medium to induce stable expression. 100 µM D-APV and 10 mM MgCl2 were added to avoid excitotoxicity to cells caused by NMDAR overexpression. About 24 hrs after transfection, the cells with green fluorescence were selected for electrophysiological recording.
The glass slide inoculated with HEK293 cells was placed in a recording chamber, and an extracellular solution (NaCl 140 mM, KCl 2.8 mM, HEPES 10 mM, CaCl2 1 mM, glycine 0.1 mM, pH7.2) was perfused at a speed of 4 mL/ min. The channels of the ALA-VC^3 eight-channel pressurized perfusion system were filled with an extracellular solution for washing, an extracellular solution containing glutamic acid (100 µM), and an extracellular solution containing glutamic acid and the compound to be tested respectively. The dripping rate was approximately 1 drop per sec, with a volume of 10 µL per drop. HEK293 cells with moderate green fluorescence intensity and good attachment were recorded under a fluorescence microscope. The delivery glass microtube of the perfusion system was positioned at a distance of approximately ten cell diameters away from the cell to be recorded. The drug was sprayed on the cell surface under air pressure (0.02 MPa). The glass electrode with a resistance of 4-6 MΩ was drawn with a microelectrode drawing instrument, and filled with an internal solution (CsCl 125 mM, HEPES 10 mM, EGTA 11 mM). Using a microelectrode manipulator, the glass electrode was slowly pushed to the cells. After the electrode was attached to the cell membrane, a negative pressure was applied, to form a high-resistance seal of 1 GΩ or higher between the electrode tip and the cell membrane, and then a negative pressure was applied to rupture the cell member and establish a whole-cell recording configuration. After the whole cell recording configuration was formed, the cell membrane potential was clamped at -70 mV. The extracellular solution containing 100 µM glutamic acid, the extracellular solution containing 100 µM glutamic acid and the compound to be tested, and the extracellular fluid were sprayed by the perfusion system on the surface of the cell membrane in sequence, for a time of 10 s, 20 s, and 10 s respectively. The NMDA receptor-mediated current was recorded to evaluate the inhibitory effect of the compound to be tested on NMDAR containing GluN2A. The test process was controlled by pCLAMP 10.6, and the stimulation signal is generated and the feedback signal is collected by using Digidata 1440A digital-to-analog converter.
In the test, the inhibition (%) on NMDAR-mediated current was evaluated after the compound was administered at a concentration of 10 µM, or the inhibition of the compound at 10, 3, 1, 0.3, 0.1, and 0.03 µM were tested, and fitted to obtain the IC50 value.
The inhibition percentage (inhibition rate) of the compound of the present invention on NMDAR-mediated current = (1- NMDAR-mediated current after administration/NMDAR-mediated current before administration)*100%. The inhibition rates of the compound at 10, 3, 1, 0.3, 0.1, and 0.03 µM were imported into Graphpad prism software, and subjected to Nonlinear Regression analysis. The IC50 value was automatically calculated by curve fitting.

[4] = Pharmacokinetic test in mice
Experimental: The test was to investigate the pharmacokinetic characteristics of the compound of the present invention in C57BL/6J male mice after oral administration (oral gavage) and intravenous injection.
Male C57BL/6J mice aged 10-12 weeks were given the solution of the compound by intravenous injection (i.v.) and oral administration (p.o.) respectively. The vehicle for intravenous injection was 0.9% physiological saline for injection. The administration dosage volume was 5 mL/kg. The animals were allowed to normal access to food and water before administration. The vehicle for oral administration was 0.9% physiological saline for injection. The administration dosage volume was 10 mL/kg. The animals were fasted for 16 hrs before administration. 0.0333, 0.1667, 0.3330, 1, 2, 4, 6, 8, 24 hrs after administration, about 70 µL of blood was collected from the facial veins of the two groups of animals, transferred to an anticoagulant tube with EDTA-K2, placed on ice, and then centrifuged at 4 Celsius degrees in 1 hr to separate the plasma (4500 g, 15 min). The drug concentration was analyzed by LC-MS/MS, and the related pharmacokinetic parameters were calculated through the linear-log trapezoidal method by non-compartmental analysis using PKSolver2.0 kinetic software.

[5] = Solution stability: purity of the solution over 24 hrs in the solubility test
Experimental: The solubilities of different forms of the compounds in media with different pH values were tested. The compound sample was weighed into a glass flask, and 1 mL or 2 mL of phosphate buffer pH=6.0, pure water, phosphate buffer pH=8.0, and/or 0.9% physiological saline respectively was added respectively, and magnetically stirred at 20°C for 24 hrs. A sample was taken for solubility test, and the purity of the solution over 24 hrs was tested. Table 18: Solubility test results of different crystal forms of the salts of Compound 2 in media with different pH values

[6] = Solid stability test (purity, crystal form, appearance on storage)
Experimental: Crystal Form A of the hydrochloride, Crystal Form B of the phosphate, and Crystal Form C of the mesylate of Compound 2 and Crystal Form G of the hydrochloride, Crystal Form I of the phosphate, and Crystal Form J of the mesylate of Compound 3 were respectively packaged and stored at an acceleration condition of 40°C/75% RH, a routing condition of 25°C/60% RH, and a high-temperature condition of 60°C, and the purity, crystal form, and appearance of the compounds were evaluated at different times. Table 20. Solid stability test results of Crystal Form A of Compound 2 hydrochloride

[7] = Intravenous administration, 1 mg/kg

## CN[C@]1(c2ccccc2Cl)CCCCC1=O
[1]; 10 mg/kg, within 5-20 min after administration, compared with the saline group
  distance traveled by the mice: significantly increases

## Clc1ccccc1[C@@]12CCCC[C@@H]1OCCN2
[2]
  1-h inhibition rate: 19.1%

## Clc1ccccc1[C@]12CCCC[C@@H]1OCCN2
[2]
  1-h inhibition rate: 13.8%

## Clc1ccccc1[C@]12CCCC[C@H]1OCCN2
[2]
  1-h inhibition rate: 9.1%

## Clc1sccc1[C@]12CCCC[C@@H]1OCCN2
[2]; 10 mg/kg i.p.
  antidepressant effect: obvious antidepressant effect
[2]
  1-h inhibition rate: 38.6%
[3]
  % (10 µM) inhibition on NMDAR-mediated current: 93%

## Fc1csc([C@@]23CCCC[C@@H]2OCCN3)c1
[2]; 10 mg/kg i.p.
  antidepressant effect: obvious antidepressant effect
[2]
  1-h inhibition rate: 58.2%
[3]
  % (10 µM) inhibition on NMDAR-mediated current: 85%

## [2H]C1([2H])CO[C@@H]2CCCC[C@]2(c2cccs2)N1
[2]; 10 mg/kg i.p.
  antidepressant effect: obvious antidepressant effect
[2]
  1-h inhibition rate: 27.4%
[3]
  % (10 µM) inhibition on NMDAR-mediated current: 91%

## c1cc([C@@]23CCCC[C@H]2OCCN3)cs1
[2]; 10 mg/kg i.p.
  antidepressant effect: obvious antidepressant effect
[2]
  1-h inhibition rate: 36.5%
[3]
  % (10 µM) inhibition on NMDAR-mediated current: 83%

## Clc1cccc(C23CCCOC2CCNC3)c1 (single isomer, unassigned)
[4]; [7]
  AUC0-last: 176 ng·h/mL
  Cl: 93 mL/min/kg
[4]; Oral administration 50 mg/kg vs i.v. 1 mg/kg
  Bioavailability (F%): 66%
[4]; Oral administration, 50 mg/kg
  AUC0-last: 5862 ng·h/mL
  T1/2: 1.21 h

## Clc1ccccc1[C@@]12CCCC[C@H]1OCCN2 [Crystal Form G of Compound 3 hydrochloride]
[2]; 10 mg/kg i.p.
  antidepressant effect: obvious antidepressant effect
  antidepressant effect compared with the isomer compounds 3-SS hydrochloride, 3-RR hydrochloride and 3-RS hydrochloride: significantly better
[2]
  1-h inhibition rate: 24.0%
[5]; solution in Phosphate buffer pH=6.0, 24 h
  Purity (24 h): 99.89%
[5]; solution in Phosphate buffer pH=8.0, 24 h
  Purity (24 h): 99.56%
[5]; solution in Pure water pH=6.8, 24 h
  Purity (24 h): 99.95%
[5]; summary in words
  solution stability: good
[6]; 0D
  Appearance: Dry white solid powder
  Crystal Form: Crystal Form G
  Purity: 99.97%
[6]; 40°C/75% RH, 7D
  Appearance: White solid powder
  Crystal Form: Crystal Form G
  Purity: 99.98%
[6]; 60°C, 7D
  Appearance: White solid powder
  Crystal Form: Crystal Form G
  Purity: 99.99%
[1]; intraperitoneal administration of 10 mg/kg, compared with the vehicle group
  distance traveled by the mice: no significant difference
